Measured values from ChEMBL document CHEMBL3596138, “A double effect molecular switch leads to a novel potent negative allosteric modulator of metabotropic glutamate receptor 5” (Medchemcomm, 2014).

Protein sequences, listed by entry. Tags and fused reporters are not part of them.
UniProt P31424, whole entry: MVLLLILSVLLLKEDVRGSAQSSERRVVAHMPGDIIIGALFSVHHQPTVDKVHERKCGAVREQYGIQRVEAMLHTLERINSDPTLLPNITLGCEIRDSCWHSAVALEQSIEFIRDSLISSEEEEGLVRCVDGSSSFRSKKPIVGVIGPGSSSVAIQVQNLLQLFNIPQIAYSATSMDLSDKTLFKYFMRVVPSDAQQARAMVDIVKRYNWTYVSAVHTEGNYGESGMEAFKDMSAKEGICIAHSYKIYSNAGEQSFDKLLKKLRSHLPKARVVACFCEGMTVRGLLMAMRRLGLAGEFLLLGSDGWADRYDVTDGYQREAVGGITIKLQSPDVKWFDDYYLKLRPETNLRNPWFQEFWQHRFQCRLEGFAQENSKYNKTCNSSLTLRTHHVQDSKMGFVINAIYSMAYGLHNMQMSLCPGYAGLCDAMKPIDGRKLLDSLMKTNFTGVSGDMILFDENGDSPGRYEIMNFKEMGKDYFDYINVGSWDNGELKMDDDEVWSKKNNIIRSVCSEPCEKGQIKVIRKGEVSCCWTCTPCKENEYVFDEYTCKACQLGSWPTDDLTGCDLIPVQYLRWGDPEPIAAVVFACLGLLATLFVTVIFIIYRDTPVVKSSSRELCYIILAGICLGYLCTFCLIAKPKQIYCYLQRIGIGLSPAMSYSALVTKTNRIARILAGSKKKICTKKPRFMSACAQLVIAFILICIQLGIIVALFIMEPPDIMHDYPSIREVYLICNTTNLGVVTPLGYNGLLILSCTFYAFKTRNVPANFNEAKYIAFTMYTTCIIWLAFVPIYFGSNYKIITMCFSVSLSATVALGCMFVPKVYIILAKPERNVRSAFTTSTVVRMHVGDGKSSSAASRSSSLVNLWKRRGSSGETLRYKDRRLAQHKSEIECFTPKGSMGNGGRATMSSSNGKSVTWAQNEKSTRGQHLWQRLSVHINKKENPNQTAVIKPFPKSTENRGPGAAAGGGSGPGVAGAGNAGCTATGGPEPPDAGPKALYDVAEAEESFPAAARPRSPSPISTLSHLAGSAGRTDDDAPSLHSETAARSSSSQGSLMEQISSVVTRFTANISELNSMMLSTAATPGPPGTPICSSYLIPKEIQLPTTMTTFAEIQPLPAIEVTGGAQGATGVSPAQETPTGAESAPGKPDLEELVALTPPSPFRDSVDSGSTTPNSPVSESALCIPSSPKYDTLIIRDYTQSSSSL

Molecular target: Metabotropic glutamate receptor 5 (Rattus norvegicus, UniProt P31424)
Test: Negative allosteric modulator activity at rat mGlu5 receptor expressed in HEK293 cells assessed as effect on quisqualate-induced inositol phosphate accumulation incubated for 30 mins by florescence assay
Format: functional, cell-based

- IC50: 89 nM
SMILES: Cc1cccc(C#Cc2ccccc2)n1
